# Antibody variant affinities, Ab-14 heavy chain, assay B

Reference: Li et al. 2023, doi:10.1038/s41467-023-39022-2. File: FLAb, binding data.

Binding partner: SARS-CoV-2 spike HR2 peptide, sequence PDVDLGDISGINAS.

Parent: Ab-14, a human scFv built as VH, a (GGGGS)3 linker, VL. Only the CDRs of the heavy chain vary.
VH: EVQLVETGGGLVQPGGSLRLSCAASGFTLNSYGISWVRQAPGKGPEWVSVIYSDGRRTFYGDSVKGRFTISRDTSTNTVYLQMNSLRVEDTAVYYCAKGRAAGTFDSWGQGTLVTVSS
VL: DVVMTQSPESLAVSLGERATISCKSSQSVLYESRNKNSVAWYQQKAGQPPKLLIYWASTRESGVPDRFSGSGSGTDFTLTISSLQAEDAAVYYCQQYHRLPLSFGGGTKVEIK

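Phage display of a naive human antibody library on the peptide gave the parent. These sequences belong to a second round, designed from the earlier measurements on random variants of the parent. Several design methods are mixed in this list. AlphaSeq pools MATa yeast showing the antibodies with MATalpha yeast showing the peptide. Mating (16 h, 30 °C) was followed by selection of diploids and sequencing of their barcodes. Scores were corrected for input abundance and mapped to Kd with protein pairs of known affinity run in the same pool. Each pool was mated in six replicate cultures.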

Variants are written as CDR1, CDR2 and CDR3 of the heavy chain (limits as in the source). Parent: GFTLNSYGIS, VIYSDGRRTFYGDSVK, GRAAGTFDS.
Variants here have more than six changes.
Values are apparent Kd, the geometric mean of the replicates that gave a signal; lower means stronger binding.
"no signal" means that the variant was in the library but no mating with the target was seen in any replicate; the authors take this as a sign of poor binding, and no number exists.

With GFNLGEYGIS, VIYADGKRTAYSWSVK, GNSAGTFNH the result was 130 pM (6 of 6 replicates).
With GFGLNEYGVS, VIYADGVRASYADNVK, GFNFGQDIL the result was no signal (0 of 6 replicates).
With GFNLNEYGIS, VIYADGRRKMYADSVK, GNTAGTFDT the result was 210 pM (6 of 6 replicates).
With GFDLNEYGIS, VIYADGVRTAYVDSVK, GENAGTFDM the result was 2.1 nM (6 of 6 replicates).
With GFSLNEYGIS, VIYADGMRTEYAQNVK, GYNSSDLTK the result was no signal (0 of 6 replicates).
With GFDLDEYGIS, VIYADGKRTAYSDSVK, GGNAGTFDL the result was 270 pM (6 of 6 replicates).
With GFDLNEYGIS, VIYADGRRTFYTDSVK, GNNAGTFDM the result was 200 pM (6 of 6 replicates).
With GDFLDEYGIS, VIYADGSRSSYADKVK, GHNFGLKMV the result was no signal (0 of 6 replicates).
With GFDLNEYGIS, VIYADGKRTAYADDVK, GETAGTFDI the result was 120 pM (6 of 6 replicates).
With GFNLDEYGIS, VIYADGRRTFYSDSVK, GEVAGTFDF the result was 300 pM (6 of 6 replicates).
With GFDLNEYGIS, VIYADGRRTFYADSVK, GQAAGTFNL the result was 520 pM (6 of 6 replicates).
With GFDLNEYGIS, VIYADGMRTVYADSVK, GETAGTFDL the result was 1.3 nM (6 of 6 replicates).
With GFDLDEYGIS, VIYADGKRTAYTDSVK, GNNAGTFDV the result was 370 pM (6 of 6 replicates).
With GFDLNEYGIS, VIYADGVRTAYSDDVK, GNVAGTFDL the result was 1.1 nM (6 of 6 replicates).
With GFDLNEYGIS, VIYADGMRTAYTDSVK, GSNAGTFDI the result was 170 nM (6 of 6 replicates).
With GFDIQEYGIS, VIYADGVRSAYIDNVK, GDTGSSFLE the result was 270 nM (1 of 6 replicates).
With GDSLNEYGIS, VIYADGFRAVYTDKVK, GVTGGNFSS the result was no signal (0 of 6 replicates).
With GIDLEEYGIS, VIYADGMRTQYINAVK, GIAGDQMDV the result was no signal (0 of 6 replicates).
With GFNLNEYGIS, VIYADGRRTFYADSVK, GQIAGTFIQ the result was 890 pM (6 of 6 replicates).
With GFDLNEYGIS, VIYADGMRTAYSDSVK, GEIAGTFDI the result was 680 pM (6 of 6 replicates).
With GFDLNEYGIS, VIYADGMRTQYIDSVK, GNAAGTFDQ the result was 1.1 nM (6 of 6 replicates).
With GEDLMEYGIS, VIYADGKRFSYIDDVK, GYSTGFLDV the result was no signal (0 of 6 replicates).
With GFDLNEYGIS, VIYADGKRTAYIDNVK, GNVAGTFDV the result was 380 pM (6 of 6 replicates).
With GFDLNEYGIS, VIYADGKRTFYSDSVK, GENAGFFDV the result was 280 nM (4 of 6 replicates).
With GFDLNEYGIS, VIYADGVRTAYADSVK, GGNAGTFDL the result was 570 pM (6 of 6 replicates).
With GFDLDEYGIS, VIYADGMRTAYADSVK, GENAGTFDI the result was 1.8 nM (6 of 6 replicates).
With GFDLNEYGIS, VIYADGRRTAYSDSVK, GGNAGTFDA the result was 600 pM (6 of 6 replicates).
With GFNLDEYGIS, VIYADGMRTAYSDSVK, GNQAGTFDV the result was 2.7 nM (5 of 6 replicates).
With GFDLNEYGIS, VIYADGRRTFYTDSVK, GAGAGTFDQ the result was 620 pM (6 of 6 replicates).
With GFDLNEYGIS, VIYADGKRTAYIDSVK, GENAGTFDI the result was 550 pM (6 of 6 replicates).
With GFDLNEYGIS, VIYADGMRTAYSDDVK, GENAGTFDM the result was 670 pM (6 of 6 replicates).
With GFDLNEYGIS, VIYADGRRTYYADSVK, GNTAGTFDV the result was 1.2 nM (6 of 6 replicates).
With GFNLDEYGIS, VIYADGMRTAYADSVK, GETAGTFDI the result was 820 pM (6 of 6 replicates).
With GFDLNEYGIS, VIYADGRRTFYADSVK, GQVAGTFDI the result was 310 pM (6 of 6 replicates).
With GFDLDEYGIS, VIYADGMRTFYADSVK, GNNAGTFDI the result was 1.1 nM (6 of 6 replicates).
With GFEVDEYGIS, VIYADGKRSMYANKVK, GHIAGMMGV the result was no signal (0 of 6 replicates).
With GFNLDEYGIS, VIYADGRRTFYQDSVK, GEVAGTFDL the result was 230 pM (6 of 6 replicates).
With GPSIDEYGIS, VIYADGVRQQYQDDVK, GQIGGFFNY the result was no signal (0 of 6 replicates).
With GFNIDEFGIS, VIYADGKRTSYSDSVK, GQLGNAFDL the result was no signal (0 of 6 replicates).
With GFDLNEYGIS, VIYADGVRTAYADSVK, GNNAGTFDI the result was 1.7 nM (6 of 6 replicates).
With GFDLNEYGIS, VIYADGKRTFYSDSVK, GNIGGTFDV the result was 860 pM (6 of 6 replicates).
With GFNLNEMGVS, VIYADGKRTVYADSVK, GHFGGVKLN the result was no signal (0 of 6 replicates).
With GFDLNEYGIS, VIYADGKRTAYSDSVK, GNVAGTFDT the result was 720 pM (6 of 6 replicates).
With GFDLNEYGIS, VIYADGMRTFYADDVK, GEVAGTFDV the result was 1.9 nM (6 of 6 replicates).
With GFDLNEYGIS, VIYADGMRTAYADSVK, GNEAGTFDS the result was 11 pM (6 of 6 replicates).
With GFDLNEYGIS, VIYADGQRTAYADSVK, GNHAGTFDV the result was 190 pM (6 of 6 replicates).
With GFDLEEMGIS, VIYADGSRKVYQDAVK, GGVSGDFDE the result was 88 nM (1 of 6 replicates).
With GFDLGEYGIS, VIYADGSRKAYATDFK, GGSGYKDGV the result was 900 nM (2 of 6 replicates).
With GKSLDEYGIS, VIYADGMRKEYTDSVK, GQFDDAMDL the result was no signal (0 of 6 replicates).

A selection of 4 entries from above:

CDR-H1,CDR-H2,CDR-H3,apparent Kd,seen in
GFDLDEYGIS,VIYADGMRTAYADSVK,GENAGTFDI,1.8 nM,6/6
GFNLDEYGIS,VIYADGMRTAYSDSVK,GNQAGTFDV,2.7 nM,5/6
GPSIDEYGIS,VIYADGVRQQYQDDVK,GQIGGFFNY,no signal,0/6
GEDLMEYGIS,VIYADGKRFSYIDDVK,GYSTGFLDV,no signal,0/6

The parent sequence was in this pool as ten entries: three were never detected, three once, and four in most replicates, with averages from 2.2 nM to 240 nM.
A sequence measured in both rounds can read differently, since the two assays cover different ranges.
In the paper, a design with two or fewer of six values counts as a poor binder.
Background: pairings of all heavy chain designs with three empty control strains gave a value in 1% of cases (median 120 nM, 5th percentile 7.0 nM). Values in that range, when seen in few replicates, are hard to tell from nonspecific mating.